Laboratory results published in ChEMBL document CHEMBL1153405, “Complementary three-dimensional quantitative structure-activity relationship modeling of binding affinity and functional potency: a study on alpha4beta2 nicotinic ligands” (J Med Chem, 2009).

Protein sequences, listed by entry. Tags and fused reporters are not part of them. Lines headed by an entry give the natural chain unless they say otherwise; changes in a name come on top.
UniProt P17787: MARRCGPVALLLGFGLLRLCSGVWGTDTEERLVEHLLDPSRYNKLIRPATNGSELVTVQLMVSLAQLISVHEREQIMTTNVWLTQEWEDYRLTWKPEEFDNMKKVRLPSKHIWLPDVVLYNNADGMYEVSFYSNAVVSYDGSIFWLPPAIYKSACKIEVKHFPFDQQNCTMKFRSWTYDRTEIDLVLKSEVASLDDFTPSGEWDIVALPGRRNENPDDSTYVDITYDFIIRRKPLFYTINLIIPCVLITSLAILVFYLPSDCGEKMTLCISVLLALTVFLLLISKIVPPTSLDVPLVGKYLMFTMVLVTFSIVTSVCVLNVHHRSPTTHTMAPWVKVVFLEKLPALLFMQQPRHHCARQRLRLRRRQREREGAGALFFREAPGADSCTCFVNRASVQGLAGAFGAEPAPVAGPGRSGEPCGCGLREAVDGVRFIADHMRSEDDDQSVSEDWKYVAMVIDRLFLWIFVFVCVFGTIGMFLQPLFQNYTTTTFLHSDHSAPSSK
UniProt P43681: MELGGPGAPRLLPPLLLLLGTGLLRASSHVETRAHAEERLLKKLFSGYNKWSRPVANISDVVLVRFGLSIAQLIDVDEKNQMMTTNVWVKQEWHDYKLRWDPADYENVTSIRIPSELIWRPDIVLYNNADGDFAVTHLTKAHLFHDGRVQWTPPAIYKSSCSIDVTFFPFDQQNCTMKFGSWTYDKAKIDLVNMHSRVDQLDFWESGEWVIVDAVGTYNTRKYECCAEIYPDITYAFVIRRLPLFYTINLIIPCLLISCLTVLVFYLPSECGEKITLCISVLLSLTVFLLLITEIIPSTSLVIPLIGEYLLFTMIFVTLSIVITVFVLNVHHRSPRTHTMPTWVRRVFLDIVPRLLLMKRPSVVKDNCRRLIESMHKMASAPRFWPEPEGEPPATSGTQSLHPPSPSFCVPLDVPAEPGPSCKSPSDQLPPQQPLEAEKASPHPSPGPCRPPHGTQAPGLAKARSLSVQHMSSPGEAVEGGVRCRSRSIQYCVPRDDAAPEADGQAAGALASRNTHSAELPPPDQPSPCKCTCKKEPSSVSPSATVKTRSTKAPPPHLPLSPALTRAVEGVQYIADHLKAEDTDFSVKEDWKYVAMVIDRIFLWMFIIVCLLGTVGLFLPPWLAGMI

Molecular target: Neuronal acetylcholine receptor; alpha4/beta2 (Homo sapiens, UniProt P17787+P43681)
Assay: Intrinsic activity at human alpha4beta2 nAChR expressed in HEK293 cells assessed as intracellular calcium level by FLIPR assay relative to (-)nicotine
Type: cell-based
In short: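 HEK-293 cells stably expressing human α4β2 (subunits cloned from IMR32) were grown in DMEM with 10% FBS at 37 °C and 5% CO2. They were plated on poly-D-lysine for 24 h, then loaded with 2 µM fluo-4/AM for 1.5 h at room temperature. Cells were washed into NMDG Ringer (10 mM CaCl2, pH 7.4) and read by FLIPR at 100 pM–100 µM. Background-subtracted responses were normalized to 100 µM (-)-nicotine, giving pEC50 and maximal efficacy; n = 4-8.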

c1cncc(OC[C@@H]2CCN2)c1
Efficacy: 183%
